{"sequences": {"note": "Chains of the proteins cited; added tags and fusions are not shown.", "UniProt P03372, whole entry": "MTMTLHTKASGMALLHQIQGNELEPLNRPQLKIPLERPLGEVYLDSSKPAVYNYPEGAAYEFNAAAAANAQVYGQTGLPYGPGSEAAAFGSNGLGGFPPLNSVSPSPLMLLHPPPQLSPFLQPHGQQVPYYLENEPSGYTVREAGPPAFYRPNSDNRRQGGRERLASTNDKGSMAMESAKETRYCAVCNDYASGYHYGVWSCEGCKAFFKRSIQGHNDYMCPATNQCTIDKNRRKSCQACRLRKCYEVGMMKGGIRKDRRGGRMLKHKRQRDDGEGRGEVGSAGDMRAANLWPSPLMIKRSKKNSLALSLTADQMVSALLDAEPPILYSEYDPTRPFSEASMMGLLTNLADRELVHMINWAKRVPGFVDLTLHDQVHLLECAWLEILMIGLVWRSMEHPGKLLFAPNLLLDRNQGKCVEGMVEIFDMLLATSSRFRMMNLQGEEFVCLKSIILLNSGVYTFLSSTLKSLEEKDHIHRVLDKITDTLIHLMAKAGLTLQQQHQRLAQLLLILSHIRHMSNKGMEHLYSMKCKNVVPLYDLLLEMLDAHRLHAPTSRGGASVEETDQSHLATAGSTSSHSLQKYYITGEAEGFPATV"}, "source": "ChEMBL document CHEMBL5052830", "about": "“Foxm1 inhibitor compositions and methods of using the same” (2021)", "target": "Estrogen receptor (Homo sapiens) (UniProt P03372)", "test": "Binding affinity towards estrogen receptor alpha (unknown origin)", "data": [{"compound": "CN1CCN(CCCCCCOc2ccc(C(=C3C4CC5CC(C4)CC3C5)c3ccc(Cl)cc3)cc2)CC1", "values": [{"measurement": "RBA", "result": 0.12, "unit": "%"}]}, {"compound": "CCN(CC)CCCCCCOc1ccc(C(=C2C3CC4CC(C3)CC2C4)c2ccc(Cl)cc2)cc1", "values": [{"measurement": "RBA", "result": 1.17, "unit": "%"}]}]}
